Measurements as given in patent publication US5622932A, “IGF-1 superagonists” (Eli Lilly and Company, priority 1995, dated 1997).

Target: T1, IGF-1 receptor (Homo sapiens, UniProt P08069)
T1 construct: 30-50 μg of human placental membrane protein was incubated; from tissue; host or cells: human placental membranes
Test: IGF-1 radioreceptor assay (displacement of [125I] ligand from human placental membranes)
Type: binding
Experimental: 67:194-197. Briefly, 30-50 μg of human placental membrane protein was incubated with approximately 10 femtomoles of [^125 I] ligand in a final volume of 500 μl of 100 mM HEPES, pH 7.8, 120 mM NaCl, 5 mM KCl, 1.2 mM MgSO4, 8 mM glucose and 0.25% BSA for 24 hours at 4° C. Membranes were collected on glass fiber filters pre-treated with 0.1% polyethyleneimine by using a cell harvester (Skatron, Lier, Norway). Binding data were analyzed by fitting displacement curves to a four parameter model employing Prefit/Allfit® software for the determination of EC50 values.

Which results are given for IGF-1 [BCAD (IGF-1)]?
RATIO = IGF1 POTENCY ÷ INSULIN POTENCY (IGF-1 receptor vs insulin receptor selectivity): 83; % IGF-1 POTENCY (relative to BCAD (IGF-1) = 100, human placental membrane, 24 hours at 4° C., from EC50 values): 100%
